These results are taken from paper PMC2748668 (Pharmacological research : the official journal of the …, 2009).

One data set has as its system OATP1B1. The settings on record: cited from earlier work.
For the next data set, the system named is OATP1B3. To be noted: cited from earlier work.
The target in a further data set is T1, human OATP1B1 (Homo sapiens, UniProt Q9Y6L6).
T1 sequence (Q9Y6L6 1-691): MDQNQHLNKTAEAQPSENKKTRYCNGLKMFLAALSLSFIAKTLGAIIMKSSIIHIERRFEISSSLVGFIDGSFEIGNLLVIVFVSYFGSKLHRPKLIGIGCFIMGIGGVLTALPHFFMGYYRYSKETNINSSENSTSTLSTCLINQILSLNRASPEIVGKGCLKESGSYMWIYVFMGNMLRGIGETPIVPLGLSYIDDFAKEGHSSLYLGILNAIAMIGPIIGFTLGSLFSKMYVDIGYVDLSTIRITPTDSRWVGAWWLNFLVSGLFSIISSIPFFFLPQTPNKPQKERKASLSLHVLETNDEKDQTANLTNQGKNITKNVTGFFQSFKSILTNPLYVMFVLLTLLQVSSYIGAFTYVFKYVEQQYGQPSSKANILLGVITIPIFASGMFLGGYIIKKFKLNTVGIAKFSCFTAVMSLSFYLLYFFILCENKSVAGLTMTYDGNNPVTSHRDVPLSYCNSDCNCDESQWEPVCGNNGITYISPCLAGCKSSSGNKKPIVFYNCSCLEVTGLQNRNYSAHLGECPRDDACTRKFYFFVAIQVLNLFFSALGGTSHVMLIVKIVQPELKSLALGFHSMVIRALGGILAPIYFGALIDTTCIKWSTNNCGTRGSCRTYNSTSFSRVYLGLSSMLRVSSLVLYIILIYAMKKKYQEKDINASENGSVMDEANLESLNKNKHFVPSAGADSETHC

As to `Clc1ccccc1C(c1ccccc1)(c1ccccc1)n1ccnc1` [Clotrimazole], the “Effect on OATP1B1-mediated estradiol-17β-glucuronide transport” value in the data set with OATP1B1 was “inhibited”. In addition, the “Effect on OATP1B3-mediated estradiol-17β-glucuronide transport” value with OATP1B3 is given as “stimulated”.
In the case of `C[C@H](CCC(=O)NCCS(=O)(=O)O)[C@H]1CC[C@H]2[C@@H]3[C@H](O)C[C@@H]4C[C@H](O)CC[C@]4(C)[C@H]3C[C@H](O)[C@]12C` [Taurocholic acid], the “Inhibition of estradiol-17β-glucuronide uptake (in words)” value at human OATP1B1 is “moderate inhibition”.
